Binding of CDR-mutated scFvs to a peptide of the spike HR2 region

Binding partner: SARS-CoV-2 spike HR2 peptide, sequence PDVDLGDISGINAS.

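The starting antibody came from a phage panning campaign against this peptide. These sequences belong to a second round, designed from the earlier measurements on random variants of the parent. Group labels follow the data file (Ctrl: baseline library sampled from a position-specific scoring matrix, with some repeated check sequences; En: ensemble of fine-tuned language models; GP: Gaussian process model; HC: hill climbing; Gen: genetic algorithm; Gibbs: Gibbs sampling; a sequence that several methods proposed may carry one label only). The scFvs were displayed on barcoded MATa yeast, the peptide on MATalpha yeast. Pairs that bind mate more often; barcode pairs of the diploids are counted by sequencing. Each replicate has its own calibration line, from reference interactions of the BCL2 family. Mating was done six times.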

Parent: Ab-14, a human scFv built as VH, a (GGGGS)3 linker, VL. Only the CDRs of the light chain vary.
VH: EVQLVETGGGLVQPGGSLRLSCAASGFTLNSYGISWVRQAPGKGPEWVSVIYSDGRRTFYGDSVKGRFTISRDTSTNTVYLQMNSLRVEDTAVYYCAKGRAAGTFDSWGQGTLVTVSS
VL: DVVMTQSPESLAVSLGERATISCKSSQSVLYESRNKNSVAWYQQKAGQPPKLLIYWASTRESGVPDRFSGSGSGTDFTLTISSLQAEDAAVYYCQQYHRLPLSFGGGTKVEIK

Each variant is given by its three light chain CDRs, as the data file delimits them; those of the parent are KSSQSVLYESRNKNSVA, WASTRES, QQYHRLPLS. Values are log10 of the apparent Kd in nM; lower means stronger binding. The mean shown is taken over the replicates in which the pair was detected. An entry "no signal" has no value in the source: the pair was not observed among the diploids in any replicate. This suggests poor binding but is not conclusive. Values of this round are not directly comparable with the first-round values of the same sequences. The authors averaged sequences with at least three values out of six and counted those with two or fewer as poor binders. Three control strains display no target. For all light chain designs, 4% of the pairings with them gave a signal, with a median of 2.64 and one signal in twenty below 1.59, so weak values seen in few replicates may be background.

"log10 Kd (nM), mean",seen in,CDR-L1,CDR-L2,CDR-L3,group
no signal,0/6,KSSQSVLYESRNMISVA,QASTRES,QQYHTLHLS,Ctrl
0.44,6/6,TLMHHQDRYDVWKKSIA,EASIRAS,QQYQRLPLA,En_Gibbs
0.74,6/6,KSSQAVLYESRNKNSVA,GASTRES,QQYHRLPLL,Ctrl
1.43,6/6,KVYQGINTHLGAHNSIA,QEETRLE,QQYAHLPLS,En_Gen
1.91,5/6,HLGLATMLEETVRNSVA,NNSTRES,QQYDRLPLS,En_Gen
-0.02,6/6,KLQQSVLYESRNPNSVA,NASTRMS,QQYHRLPLS,GP_Gen
-0.21,6/6,KMSQSVLYESRNKNSVA,DGSTRES,QQYHRLPLS,GP_Gen
0.30,6/6,KLSQQDWYESRNKNSVA,QASVREQ,QQYHRLPLS,GP_Gibbs
1.44,5/6,MLSQMWAIGMKAKNSVA,QASMRFN,QQYDRLPLV,En_Gen
0.04,6/6,KLPQSVLYESRNKNSVA,EASTRMS,QQYHRLPLS,GP_Gen
0.60,6/6,HLSWVVLYESRNKNSVA,NASTREE,QQYHRLPLS,GP_HC
0.52,6/6,KVSPSMLGEERNKNSVA,SASTREN,QQYHRLPLS,GP_Gibbs
-0.08,6/6,KWSFSVMGESRNKNSVA,DASTRES,QQYERLPLS,GP_Gibbs
-0.16,6/6,KSSQSWLYESRNKNSVA,GASTRVS,QQYHRLPLS,GP_HC
0.96,6/6,KSLQSVLQESRNKNSVA,HASTRED,QQYHRLPLS,GP_HC
0.88,6/6,KFSQSPLTESRNKNSVA,WASTRES,QQYHRLPLS,Ctrl
0.25,6/6,KLEQSHLYESRNKNSVA,NASTRES,QQYHRLPLS,GP_Gen
-0.19,6/6,KLSQSQLYESRNSNSVA,DASNRES,QQYHRLPLS,GP_Gibbs
2.03,6/6,TIGGTLMFGSRNRSNVA,EVSERLN,QQYDRLPLF,En_Gen
1.24,6/6,KSSQSVLYNSSNKNNVA,WASTRES,QQYHRLPLS,Ctrl
-0.40,6/6,KLSQSYLYESRNKNSVA,NASQRLS,QQYHRLPLS,GP_Gen
1.55,6/6,VYNLPFEGVQPKKYSIA,NAEIREI,QQYFRLPIL,En_Gibbs
-0.36,6/6,KMSQSVLYESRNKNSVA,EASQRES,QQYHRLPLS,GP_Gen
-0.02,6/6,KVQQSELGLSRNKNSVA,EASTRED,QQYHRLPLS,GP_Gibbs
3.10,3/6,KVSEFMRGLMMRTDSIA,DNVTRNN,QQYDRLPLS,En_Gen
-0.14,6/6,KLSQSWLYESRNKNSVA,NASTRFS,QQYHRLPLS,GP_Gen
0.43,6/6,KLSQSDNYESRNHNSVA,HASTRCS,QQYHRLPLS,GP_Gibbs
0.51,6/6,KLMTSDLYESRMVNAVA,DASTRMD,QQYHRLPLS,GP_Gibbs
no signal,0/6,KCSQSWLTESDDKNSVA,WASERES,QLYHRLPLS,Ctrl
0.55,6/6,KLGAATRFESSNKASIA,DNSTREE,QQYHRLPLS,En_HC
0.58,6/6,KSSISYLYESRNFNSVA,EASTRES,QQYHRLPLS,GP_HC
1.30,6/6,MISQVMNTLTRHGNNVA,DLSERED,QQYFRLPLS,En_Gen
0.67,6/6,KITGMWTFESHNKNSIA,EESTRED,QSYHRLPLS,En_HC
0.86,6/6,MLTWGDDHTTGHQNSIA,HAHERNT,QQYAQLPLT,En_Gibbs
-0.46,6/6,KLSGSMLYQSRNKNAVA,EASQREQ,QQYHRLPLS,GP_Gibbs
1.00,6/6,MLDEYQMYEAANLNAIA,DANCTMP,QQYYSLPLS,En_Gibbs
0.21,6/6,KLMQSHLYESRMANNVA,SASTREE,QQYHRLPLS,GP_Gibbs
0.49,6/6,KIAQEVWMESRNTNSVA,KASTRES,QQYHRLPLS,Ctrl
2.65,1/6,KSSQSVLYESYNFNAVA,WASTRES,QQYHRLPLS,Ctrl
0.85,6/6,HMSMLTLGGMRSRNSVA,QMTTREN,QQYDRLPLS,En_Gen
0.02,6/6,KCSKSVLFESRNKNSVA,NASTRES,QQYHRLPLS,GP_HC
0.40,6/6,KCEQSWLYESRVKNNVA,NASQRES,QQYHRLPLS,GP_Gibbs
no signal,0/6,HFSQVTMYGYWNKNSVA,QTSTRED,QQYDRLPLS,En_HC
-0.23,6/6,KLSQSVLYEQRNKNSVA,EASQRES,QQYHRLPLS,GP_Gen
0.90,6/6,KLSQHVNFFGHAINSVA,EMETREN,QQYDRLPLS,En_HC
0.42,6/6,KLQQSWLYESRNKNSVA,HASTRCS,QQYHRLPLS,GP_Gen
0.76,6/6,KLSMSYRYETEEKNSIA,ELVTRAS,QQYHRLPLS,En_HC
1.19,6/6,KLSQSVWYESRNKNSVA,FASTRES,QQYHRLPLS,Ctrl
-0.24,6/6,KVSQSVPYESRNKNAVA,EASTRES,QQYHRLPLS,GP_Gen
0.23,6/6,KCQQSQLYESRNKNAVA,NASTRLD,QQYHRLPLS,GP_Gibbs
0.61,6/6,KLSQSVLYESRMKNSVA,EASQRES,QQYHRLPLS,GP_Gen
0.24,6/6,HLSQSWLYESRNKNSVA,NASTRMS,QQYHRLPLS,GP_Gen
0.56,6/6,KISQMVRVGSTHSSSIA,EEETRAK,QQYHRLPLS,En_Gen
0.71,6/6,NISTQIPEFKMWDNNIA,GATLRPT,QDYARLPLS,En_Gibbs
-0.24,6/6,KLSQSVLYESRMKNSVA,NASTRSS,QQYHRLPLS,GP_Gen
0.08,6/6,KVSQLELYESRNKNSVA,NASTRES,QQYHRLPLS,GP_Gen
1.68,2/6,KSEQSVCYESRNKNSVA,WASHRES,QQYHRLPLS,Ctrl
3.77,1/6,KSSQSELHESRNKQSVA,WASTRES,QQCHRLPLS,Ctrl
0.42,6/6,KLPQSVLYEGRNKNSVA,SASTRES,QQYHRLPLS,GP_Gen
0.82,6/6,KISQSVLYESRNKNSVA,WASTRES,QQYHVLPLS,Ctrl
0.75,6/6,QMSQSVDYESRNKNSVA,WASTRES,QQYYRLPLS,Ctrl
0.44,6/6,MFDWGELPNGQKTSSIA,QGHMRAG,QQYYQLPLC,En_Gibbs
0.07,6/6,KLEWSDLLESRNKQSVA,NASQRES,QQYHRLPLS,GP_Gibbs
1.71,6/6,MISQIYNMGQFAINSVA,QASIRNA,QQYDRLPLI,En_Gen
no signal,0/6,KSSQSVLYEWRNKHSVA,WASTREP,QQYHRLPLS,Ctrl
-0.29,6/6,KLPQSDLYESRNKNSVA,NASTRLS,QQYHRLPLS,GP_Gen
0.02,6/6,KHSISVWGGDRNKNSVA,DASTRES,QQYHRLPLS,GP_Gibbs
-0.10,6/6,HLSWVVLYESRNKNSVA,NGSTRES,QQYHRLPLS,GP_HC
0.01,6/6,KLQQSWEYESRNKNSVA,NASQRLS,QQYHRLPLS,GP_Gen
1.11,5/6,HMSMITLQGMRARNSVA,QMTTREN,QQYDHLPLS,En_Gen
1.49,6/6,KLSVSYLFESLEKNSIA,ENSTREK,QHYHRLPLS,En_HC
0.81,6/6,KHSQSFLYESRWKNSVA,GASQRES,QQYHRLPLS,GP_HC
0.74,6/6,KLTATMRFEQKASNNIA,EVTNRLK,QQYYRLPLA,En_Gen

Extract of 11 entries:

CDR-L1,CDR-L2,CDR-L3,group,"log10 Kd (nM), mean",seen in
KISQSVLYESRNKNSVA,WASTRES,QQYHVLPLS,Ctrl,0.82,6/6
HFSQVTMYGYWNKNSVA,QTSTRED,QQYDRLPLS,En_HC,no signal,0/6
KVSEFMRGLMMRTDSIA,DNVTRNN,QQYDRLPLS,En_Gen,3.10,3/6
KLEWSDLLESRNKQSVA,NASQRES,QQYHRLPLS,GP_Gibbs,0.07,6/6
KLSQSDNYESRNHNSVA,HASTRCS,QQYHRLPLS,GP_Gibbs,0.43,6/6
KLSQSVWYESRNKNSVA,FASTRES,QQYHRLPLS,Ctrl,1.19,6/6
HLSWVVLYESRNKNSVA,NGSTRES,QQYHRLPLS,GP_HC,-0.10,6/6
HMSMITLQGMRARNSVA,QMTTREN,QQYDHLPLS,En_Gen,1.11,5/6
KSSQSVLYNSSNKNNVA,WASTRES,QQYHRLPLS,Ctrl,1.24,6/6
KVQQSELGLSRNKNSVA,EASTRED,QQYHRLPLS,GP_Gibbs,-0.02,6/6
KLEQSHLYESRNKNSVA,NASTRES,QQYHRLPLS,GP_Gen,0.25,6/6

Data: MIT Lincoln Laboratory AlphaSeq set, Li et al. 2023, doi:10.1038/s41467-023-39022-2, as distributed in FLAb.